The results in this text go back to ChEMBL document CHEMBL2034949, “Small Molecule Inhibitors of Regulator of G Protein Signalling (RGS) Proteins” (ACS Med Chem Lett, 2012).

Chains of the proteins cited; added tags and fusions are not shown. Lines headed by an entry give the natural chain unless they say otherwise; changes in a name come on top.
UniProt P49841: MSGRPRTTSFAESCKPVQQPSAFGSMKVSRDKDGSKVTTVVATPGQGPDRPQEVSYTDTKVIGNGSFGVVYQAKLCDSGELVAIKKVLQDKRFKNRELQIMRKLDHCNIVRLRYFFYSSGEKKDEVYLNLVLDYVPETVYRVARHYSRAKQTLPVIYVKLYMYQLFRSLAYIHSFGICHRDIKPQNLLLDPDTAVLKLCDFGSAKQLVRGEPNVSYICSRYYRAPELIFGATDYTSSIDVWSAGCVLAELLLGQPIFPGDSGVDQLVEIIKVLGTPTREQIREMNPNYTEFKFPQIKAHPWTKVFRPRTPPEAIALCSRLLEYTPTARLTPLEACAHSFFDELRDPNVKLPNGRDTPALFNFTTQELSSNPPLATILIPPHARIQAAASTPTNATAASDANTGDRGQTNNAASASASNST

Assay [1] is described as follows: Selectivity ratio of IC50 for RGS8 to IC50 RGS4.
The target in assay [2] is Glycogen synthase kinase-3 beta (Homo sapiens, UniProt P49841). As to the kind of experiment: Inhibition of GSK3beta.

Each structure is given as a SMILES string.

As to `CCCCn1c(=O)sn(CC)c1=O`, the Ratio IC50 in assay [1] was found to be 5810. Also, 70 µM corresponded to half-maximal inhibition in assay [2] (IC50).
